Experimental data from patent publication US20240374749A1, “ANTIBODY-EXATECAN CONJUGATES” (Glykos Finland Oy, priority 2023, published 2024).

Columns and labels:
[1] = system: HER2+ SK-BR-3 breast cancer cells; assay: In vitro cytotoxicity assay, Example 4 (FIG. 3A); format: cell-based; settings: SK-BR-3 cells
Experimental: HER2+ SK-BR-3 breast cancer cells (ATCC) and CD33+ MOLM-13 leukemia cells (DSMZ, German Collection of Microorganisms and Cell Cultures) were cultured essentially according to the providers' instructions. […] FIG. 3A: HER2+ SK-BR-3 breast cancer cells were incubated with trastuzumab-exatecan ADC TRExM01, trastuzumab-deruxtecan ADC TRDxM01 and free exatecan payload (provided as mesylate salt). […] FIG. 3B: CD33+ MOLM-13 leukemia cells were incubated with lintuzumab-exatecan ADC LNExM01 and lintuzumab-deruxtecan ADC TRDxM01.

[2] = system: HER2+ JIMT-1 breast cancer cells
Experimental: (§1) HER2+ SK-BR-3 breast cancer cells (ATCC), HCC1954 breast cancer cells (CRL-2338, ATCC), JIMT-1 breast cancer cells (DSMZ) and SKOV-3 ovarian cancer cells (ATCC) were cultured essentially according to the providers' instructions. After incubation with ADCs, cell viability was determined using PrestoBlue reaction using manufacturer's instructions. Cell viability data data was transferred to GraphPad Prism to determine IC50 values. Exatecan (mesylate salt) and DXd (free deruxtecan payload) were purchased from MedChemExpress.

[3] = system: HER2+ SKOV-3 ovarian cancer cells
Experimental: as §1

[4] = system: HER2+ HCC1954 breast cancer cells
Experimental: as §1

[5] = system: HER2+ SK-BR-3 breast cancer cells
Experimental: as §1

Substance | IC50 [1] [nM] | cytotoxic activity (in words) [2] | cytotoxic activity (in words) [3] | cytotoxic activity (in words) [4] | cytotoxic activity (in words) [5]
TRDxM: trastuzumab-deruxtecan ADC DAR=8 [reference compound] | 0.4 | comparable activity to TREXM | comparable activity to TREXM | comparable activity to TREgM, TREbM and TRExM | –
trastuzumab | – | – | very low cytotoxic activity | no cytotoxic activity | very low cytotoxic activity
